“Also recorded” adds a separate entry of the source. Where only a bound is given, the exact number is not on record here.

The subject of one series is B16-F10 melanoma cells. The series is described as follows: B16-F10 syngeneic lung metastasis model. The series is classed as in vivo, mouse. Conditions: SDX-7320 25 mg/kg Q4D x 3, day 15. The gist of the method: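 Female C57BL/6NTac mice (8/group) received B16-F10 melanoma cells by tail vein. Cells were grown in DMEM with 5% FBS at 37°C under 5% CO2. Dosing began 24 h after injection: saline vehicle, test compound 25 mg/kg Q4D × 3, and a reference METAP2 inhibitor 30 mg/kg Q2D × 6. Lungs were excised on day 15 and visible metastases counted by stereomicroscope. Two-tailed Student t test.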

The next series deals with MDA-MB-231 tumors. Description: MDA-MB-231 TNBC model in chick embryos. The series is classed as in vivo, chick embryo. Conditions: 15 and 90 μg, every 4D, two doses. The gist of the method:
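MDA-MB-231 cells were inoculated into fertilized White Leghorn eggs on embryonic day E9. From E11, embryos received vehicle, test compound (15 or 90 μg, every four days, two doses) or paclitaxel positive control (2.1 μg, every other day, four doses). Metastatic invasion into the lower chorioallantoic membrane was assessed. Tumors were dissected on E19.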

A short description of series [1]: Aqueous solubility of SDX-7320. Type of series: physicochemical. The conditions noted are these: 25°C.
The test system of a further series is HUVEC. Description: HUVEC proliferation. The series is classed as cell-based, human. Conditions: 72 hours. A digest of the protocol:
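HUVEC were grown in EBM-2/EGM-2 with 2% FBS and 2X gentamicin, seeded at 5,000 cells/well and left overnight. Compounds were diluted in DMSO, then in the same medium (final DMSO 0.1%). After 72 h at 37°C, CellTiter 96 Aqueous One reagent was added for 3 h at 37°C and A490 read. The mean A490 of highest-concentration wells was subtracted, and IC50 came from a four-parameter variable-slope log(inhibitor)-response fit.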

The next series relates to A549 tumors. The series is described as follows: A549 non-small cell lung cancer xenograft model. The series is classed as in vivo, mouse. Conditions: 6, 60 mg/kg, Q4D.
Series [2] is described as follows: Rat functional observation battery. The series is classed as in vivo. The conditions noted are these: 10 and 30 mg/kg, 36 hours postdose, not considered adverse. The gist of the method: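 Under GLP, male experimentally naïve CD [Crl:CD(SD)] rats, about 8 weeks old, received a single s.c. dose of 3, 10 or 30 mg/kg (ten/group). A functional observation battery was run pre-dose (day −1) and at 12 and 36 h post-dose. Mortality, clinical observations and body weights were also recorded.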

Another series can be described thus: CNS exposure. The series is classed as in vivo. The conditions noted are these: rat, equimolar small molecule doses, measured near plasma Tmax. The gist of the method: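 Plasma and CSF levels of the small-molecule inhibitor were measured in rats after intravenous dosing of the polymer conjugate, the free inhibitor or a comparator inhibitor, all at equimolar small-molecule doses. CSF was sampled near plasma Tmax. For the rapidly metabolised comparator, its active metabolite (M-IV) was measured rather than the parent.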

On to “Glycine, N-(2-methyl-1-oxo-2-propen-1-yl)glycyl-L-phenylalanyl-L-leucyl-, 4-nitrophenyl ester, polymer with N-(2-hydroxypropyl)-2-methyl-2-propenamide, reaction products with (3R,4S,5S,6R)-5-methoxy-4-[(2R,3R)-2-methyl-3-(3-methyl-2-buten-1-yl)-2-oxiranyl]-1-oxaspiro[2.5]oct-6-yl N-(trans-4-aminocyclohexyl)carbamate [SDX-7320]”, for which, in the series with B16-F10 melanoma cells, the “outgrowth of B16-F10 melanoma cells in the lungs relative to vehicle” value was “significantly inhibited the outgrowth; also recorded: equally efficacious as TNP-470”. For the same substance, in the series on MDA-MB-231 tumors, the “MDA-MB-231 tumor growth relative to vehicle-treated tumors” value is given as “dose-dependent inhibition of tumor growth”. Also, in series [1], the Aqueous solubility result was “greater than 200 g/L”. Further, in the series with HUVEC, the “fold reduced potency relative to the small molecule inhibitors in HUVEC growth” value is given as over 500 fold. The “inhibition of A549 tumor growth relative to vehicle-treated controls” value in the series with A549 tumors is “significant, dose-dependent inhibition”. Moreover, in series [2], the “decrease in body weight gain relative to vehicle-treated animals” value is under 5%. In addition, in “CNS exposure”, the “CSF levels of SDX-7539, fold lower than the active metabolite of TNP-470 (M-IV)” value was found to be 17 fold. For the same substance, the “CSF levels of SDX-7539, fold lower compared with equivalent amount of free (unconjugated) SDX-7539” value in “CNS exposure” (intravenous) is reported as over 50 fold.

The record behind these values is publication PMC11063762 (Molecular Cancer Therapeutics, 2024).
